The test has as its target human α-thrombin (Homo sapiens (Human), UniProt P00734). The experiment in a line: In vitro assay for determining proteinase inhibition (thrombin Ki). In kind it is biochemical. The following applies: 25° C., 0.05 M TRIS buffer pH 7.4, 0.15 M NaCl, 0.1% PEG; competitive inhibition assumed. The procedure: NMR determinations were made using 400 MHz field strength. Ki data was obtained according to the procedure described in Lewis, et al. Thromb. […] Reactions sensitive to moisture or air were performed under nitrogen or argon using anhydrous solvents and reagents. […] Typically, the analytical LC-MS system used consisted of a Waters ZQ platform with electrospray ionization in positive ion detection mode with an Agilent 1100 series HPLC with autosampler. The column was usually a Water Xterra MS C18, 3.0×50 mm, 5 μm. The flow rate was 1 mL/min, and the injection volume was 10 μL. UV detection was in the range 210-400 nm. […] Preparative HPLC purifications were usually performed using a mass spectrometry directed system. […] The mobile phases consisted of mixtures of acetonitrile (10-100%) in water containing 0.1% TFA. Flow rates were maintained at 50 mL/min, the injection volume was 1800 μL, and the UV detection range was 210-400 nm. Mobile phase gradients were optimized for the individual compounds. Reactions performed using microwave irradiation were normally carried out using an Emrys Optimizer manufactured by Personal Chemistry, or an Initiator manufactured by Biotage. Concentration of solutions was carried out on a rotary evaporator under reduced pressure. […]
Concentrations of stock solutions of Z-GPR-afc were determined from measurements of absorbance at 380 nm of the 7-amino-4-trifluoromethyl coumarin produced upon complete hydrolysis of an aliquot of the stock solution by thrombin.
Activity assays were performed by diluting a stock solution of substrate at least tenfold to a final concentration ≦0.1 Km into a solution containing enzyme or enzyme equilibrated with inhibitor. Times required to achieve equilibration between enzyme and inhibitor were determined in control experiments. Initial velocities of product formation in the absence (Vo) or presence of inhibitor (Vi) were measured. […]
The Ki is a dissociation constant, usually derived from enzyme kinetics or from competition with a known ligand. Higher therefore signals lower affinity. In turn, `NCc1ccc(Cl)cc1CNC(=O)[C@@H]1CCCN1C(=O)C1(N)CCc2cccnc21` (single isomer, unassigned) [Compound 29-9b, tris(2,2,2-trifluoroacetate)] displayed a Ki of 100 nM. The compound `CC1(C)CC1(O)C(=O)N1CCC[C@H]1C(=O)NCc1cc(Cl)ccc1CN` (single isomer, unassigned) [Compound 37-11a] showed a Ki of 720 nM.

Take `CC1(C)C[C@]1(O)C(=O)N1CCC[C@H]1C(=O)NCc1cc(Cl)ccc1CN` (single isomer, unassigned) [Compound 37-11b]: the Ki was 65 nM.
